Values of other authors, collected in patent publication US20070122482A1, “Method for preparing modified release pharmaceutical compositions” (priority 2003, published 2007).
This is a selection: effects in other tests are not listed, and their absence says nothing.

Conditions: Table 1, Poorly-Soluble Drug Candidates

## CCC(=O)N(c1ccccc1)C1CCN(CCc2ccccc2)CC1
  Solubility in water: Sparingly
